{"source": "patent US20230143984A1", "about": "“COLLOIDAL CARRIER SYSTEMS FOR TRANSFER OF AGENTS TO A DESIRED SITE OF ACTION” (Heidelberg University, priority 2020, published 2023)", "origin": "cited, not measured here", "system": "long-term potentiation (LTP) in brain slices", "conditions": "applied to brain slices in vitro; Richter et al., 2018", "note": "Entries after “also recorded” stand apart in the source; their conditions may differ.", "data": [{"sequence": "DAEFRHDSGYEVHHQK (human APPs alpha fragment; listed as Homo sapiens) [CTα16]", "values": [{"measurement": "effect on long-term potentiation / synaptic plasticity", "result": "same effects in terms of long-term potentiation as the complete protein APPsα; also recorded: enhances synaptic plasticity"}]}]}
